Laboratory results reported in US20020061840A1, “Tripeptide compounds useful as selective inhibitors of aminopeptidase A and corresponding pharmaceutical compositions” (priority 2000, published 2002).
Where two headings read alike, the source gives them in different places.

Molecular target: T1, Aminopeptidase N (Sus scrofa, UniProt P15145)
T1 construct: Aminopeptidase N purified from pig's kidney; purchased Böehringer Mannheim (Meylan, France); host or cells: pig's kidney
T1 sequence (P15145 1-963): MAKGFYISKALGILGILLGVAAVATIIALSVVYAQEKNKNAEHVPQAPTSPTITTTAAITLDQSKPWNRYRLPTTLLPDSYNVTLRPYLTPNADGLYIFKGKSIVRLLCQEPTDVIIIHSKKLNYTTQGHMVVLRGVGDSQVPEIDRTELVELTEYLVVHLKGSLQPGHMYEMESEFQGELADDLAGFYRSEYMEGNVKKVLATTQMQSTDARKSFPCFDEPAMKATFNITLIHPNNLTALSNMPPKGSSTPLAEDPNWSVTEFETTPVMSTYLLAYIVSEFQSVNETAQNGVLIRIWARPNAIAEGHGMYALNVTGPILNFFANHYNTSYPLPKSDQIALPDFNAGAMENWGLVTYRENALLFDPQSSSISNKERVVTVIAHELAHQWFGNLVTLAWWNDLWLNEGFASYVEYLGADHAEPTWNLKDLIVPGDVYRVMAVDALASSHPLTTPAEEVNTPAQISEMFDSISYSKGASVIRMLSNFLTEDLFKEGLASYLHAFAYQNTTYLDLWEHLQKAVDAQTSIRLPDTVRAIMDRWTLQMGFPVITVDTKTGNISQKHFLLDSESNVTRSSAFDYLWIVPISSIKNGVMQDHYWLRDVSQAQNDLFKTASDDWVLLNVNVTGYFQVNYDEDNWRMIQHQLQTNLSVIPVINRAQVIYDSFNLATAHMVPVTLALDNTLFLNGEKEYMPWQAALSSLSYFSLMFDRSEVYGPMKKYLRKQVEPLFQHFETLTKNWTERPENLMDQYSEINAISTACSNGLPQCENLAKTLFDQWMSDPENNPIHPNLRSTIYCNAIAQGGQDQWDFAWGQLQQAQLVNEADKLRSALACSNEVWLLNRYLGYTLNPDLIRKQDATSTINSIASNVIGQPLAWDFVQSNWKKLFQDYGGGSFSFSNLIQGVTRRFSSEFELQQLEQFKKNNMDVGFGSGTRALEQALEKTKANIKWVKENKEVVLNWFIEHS
Assay: In vitro inhibiting power on aminopeptidase N (Ala-Na substrate)
Format: biochemical, pig
Procedure: b)) In vitro study of the inhibiting power of the synthesised compounds on aminopeptidase N.
1°) Source of the Enzyme.
Aminopeptidase N purified from pig's kidney is marketed by Böehringer Mannheim (Meylan, France).
The APN is incubated for 10 min at 37° C. in the absence or in the presence of increasing concentrations of inhibitors in a total volume of 100 μl in Tris HCl buffer (50 mM, pH =7.4. 200 μM of Ala-Na are added and the whole thing is incubated for 30 min at 37° C. The reaction is stopped by the addition of 10 μl of CH3COO—Na 1M (pH=4.2). The absorption is measured at 400 nm and compared with that of a standard range of 2-naphthyiamine.

Ki (read-out: Ki (M) APN, APN purified from pig's kidney, 200 μM Ala-Na, 37° C., Tris HCl pH 7.4) [M] | Ki [M] | SMILES
> 5e-06 |  | CCC(C)C(NC(=O)C(S)C(N)CCS(=O)(=O)O)C(=O)NC(CS(=O)(=O)O)C(=O)O (single isomer, unassigned) [Example 5B]
 | > 5e-06 | CCC(C)C(NC(=O)C(S)C(N)CCS(=O)(=O)O)C(=O)NC(CS(=O)(=O)O)C(=O)O (single isomer, unassigned) [Example 5A]
